{"source": "patent US20040097408A1", "about": "“Compounds regulating cell proliferation and differentiation” (priority 2001, published 2004)", "tested_on": "mice", "assay": "tolerability of intraperitoneal F16 in mice", "settings": "doses of 12.5 and 25 mg/kg", "data": [{"smiles": "C[n+]1ccc(/C=C/c2c[nH]c3ccccc23)cc1.[I-]", "note": "[F16]", "values": [{"measurement": "tolerability", "value": "well tolerated"}]}]}
